Biological target: PHD2 (Homo sapiens, UniProt Q9GZT9)
Test: biochemical
Experimental: 3. Biochemical procedures
Protein production and purification
PAGE analysis) according to established procedures.
FIH, PHD2, AspH, JMJD5 and KDM4A inhibition assays
The in vitro FIH,1, 2 PHD2,1 AspH,38 JMJD536 and KDM4A39 inhibition assays were performed as […]
KDM4A). Synthetic peptide substrates were used: HIF-1α C-terminal transactivation domain fragment […]
H3Lys9 bearing three methyl groups at the N ϵ position, H3Lys4 substituted by an Ala and H3Lys14 substituted by an Ile residue) for KDM4A.39 Peptides were prepared as C-terminal amides by GL Biochem (Shanghai) Ltd. Peptide hydroxylation in the case of FIH, PHD2, AspH and JMJD5 (+16 Da mass shift) or peptide demethylation in the case of KDM4A ( -14 Da mass shift) was monitored by SPE-MS. […]

The chains behind the UniProt entries cited, without tags or fusion partners. Residues count along the entry.
UniProt Q9GZT9, 181-426: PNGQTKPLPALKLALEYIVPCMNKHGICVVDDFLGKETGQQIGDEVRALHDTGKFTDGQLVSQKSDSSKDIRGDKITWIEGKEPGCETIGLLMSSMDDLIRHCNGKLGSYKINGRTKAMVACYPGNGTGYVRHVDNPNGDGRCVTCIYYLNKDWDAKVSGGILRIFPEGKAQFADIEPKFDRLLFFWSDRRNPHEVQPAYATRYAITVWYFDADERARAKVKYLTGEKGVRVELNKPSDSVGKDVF

## O=C(O)Cc1cs/c(=N\C(=O)CNC(=O)c2ccccc2)n1O [compound 16]
  IC50: 1.2 ± 0.2 µM

— paper PMC10631261 (Chemical Science, 2023)
